These results are taken from patent US20250263426A1, “PDE4B INHIBITOR AND USE THEREOF” (Xizang Haisco Pharmaceutical Co., Ltd., priority 2022, published 2025).

Chains of the proteins cited; added tags and fusions are not shown. Residues count along the entry.
UniProt Q08499, 303-809, stated change not applied: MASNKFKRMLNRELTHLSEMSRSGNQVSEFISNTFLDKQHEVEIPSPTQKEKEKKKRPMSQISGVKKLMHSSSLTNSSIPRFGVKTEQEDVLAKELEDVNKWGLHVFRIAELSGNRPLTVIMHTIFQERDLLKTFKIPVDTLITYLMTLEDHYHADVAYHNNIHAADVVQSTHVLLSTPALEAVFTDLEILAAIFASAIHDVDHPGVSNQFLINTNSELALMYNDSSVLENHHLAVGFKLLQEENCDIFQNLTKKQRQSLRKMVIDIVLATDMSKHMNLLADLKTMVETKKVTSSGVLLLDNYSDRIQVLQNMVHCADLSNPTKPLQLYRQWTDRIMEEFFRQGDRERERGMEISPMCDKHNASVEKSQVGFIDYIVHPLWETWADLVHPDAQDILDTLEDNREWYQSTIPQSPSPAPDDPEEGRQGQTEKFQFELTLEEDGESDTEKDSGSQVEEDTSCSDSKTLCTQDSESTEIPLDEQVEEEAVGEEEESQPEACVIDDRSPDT

Structures are written as SMILES.

One assay deals with PDE4D2 (Homo sapiens (Human), UniProt Q08499). Put plainly: Effect of compounds on PDE4D2 activity (fluorescence polarization kit). Format: biochemical. The procedure: FP was usually represented by mP value.
[formula] • I∥ (S520): fluorescence intensity in parallel direction • I⊥ (P520): fluorescence intensity in perpendicular direction • G: G factor=1
[formula] • mP(sample): mP of the test compound in a reaction well • mP(negative control): mP in the negative control well • mP(positive control): mP in the positive control well
According to the calculated inhibition rate at each concentration, the IC50 value of each compound was calculated by GraphPad Prism 8 software.
On the technique in general: Fluorescence polarisation rises when a labelled molecule tumbles more slowly, as on binding a larger partner.

The test system of assay [1] is human peripheral blood mononuclear cells (TNF-α release). Put plainly: Inhibition of LPS-induced TNF-α release from human peripheral blood mononuclear cells in vitro. Format: cell-based. The note with it: hPBMC, 100 ng/mL LPS, 4 h. The procedure:
5. Detection of Inhibitory Activity of Compounds on the Release of Tumor Necrosis Factor-α (TNF-α) from Human Peripheral Blood Mononuclear Cells Induced by Lipopolysaccharide (LPS) In Vitro
Normal human peripheral blood which was anticoagulated (citric acid anticoagulation) was collected, and hPBMCs were prepared by Ficoll-Paque PLUS (Cytiva, Cat #17144002, density 1.077 g/mL). The concentration of hPBMC cells was adjusted to 0.25×10^6 cells/mL with RPMI1640 medium and inoculated into a 96-well plate in an amount of 50000 cells per well. Subsequently, different concentrations of drugs were added for pre-incubation for 1 h (the DMSO final concentration was 0.1%, and the positive and negative control wells had the same volume of RPMI1640 containing 0.1% DMSO). After the pre-incubation was complete, 100 ng/mL LPS (SIGMA, L2630) was added to the compound and positive control wells, and the negative control well had the same volume of RPMI1640 containing 0.1% DMSO. Incubation was carried out for 4 h in an incubator at 37° C. and 5% CO2. The cell supernatant was collected, and the content of TNF-α in the supernatant sample was detected by human TNF-α Elisa quantitative test kit (Sino Biological, Cat #KIT10602). The IC50 value was calculated using GraphPad Prism software.

For orientation: IC50 means the midpoint of a concentration-inhibition curve. As to `COC(=O)NCC1(Nc2nc(N3C[C@H]4CN(c5ccc6c(c5)CC6)C[C@H]4C3)nc3c2[S+]([O-])CC3)CCC1` (stereo partly drawn) [Compound 82-2], the IC50 was 10 to 50 nM against PDE4D2 and 10 to 50 nM in assay [1] (relative IC50, read-out: Re IC50). In addition, the “Max inhibition (%)” value in assay [1] is given as 73.50%.
